The source of these data is PubChem BioAssay AID504706 (National Center for Advancing Translational Sciences (NCATS), 2011).

This is a selection; strong and weak results do not stand in their true shares. Inconclusive results are not listed. The source made the active and inactive calls. Calls come from the whole dose curve; as a rule, active = well fitted activation curve with a large enough effect; inconclusive = small, poorly fitted or top-dose-only effect; inactive = no such curve, though single readings can be large or run the other way.

This test can be described thus: qHTS assay for re-activators of p53 using a Luc reporter. Note: % of control where 0% means no effect; nearly all actives have a fitted effect of over 45% in size. Particulars: H1299 p53-A138V BP100-luciferase reporter, luminescence, 24 h; at 92.2 µM (top of the series). The source says: The p53 tumor suppressor plays a key role in suppression of tumorigenesis and in human carcinogenesis. It is frequently found inactivated in human cancers, mainly by point mutation. These point mutations are found in a wide variety of human cancers and a majority of them affect the DNA binding domain of the protein. The point mutations either alter native p53 conformation or abolish DNA contact. Additionally, cancer cells with p53 mutations are more resistant to chemo-radiation therapies. In order to find activators to reactivate this important protein, a cell-based screen for p53-dependent luciferase-reporter expression was developed. A p53-null H1299 lung cancer cell line was stably co-transfected with a temperature sensitive p53 mutant, p53-A138V, and a p53-responsive BP100-luciferase reporter. This cell model has previously been characterized in a gene chip profiling experiment for p53 activation. By lowering the culture temperature from 37 deg C (mutant p53 conformation) to 32 deg C (w.t. p53 conformation), a 30-60 fold increase in activation of luciferase activity is observed. At assay temperate, 37 deg C, basal reporter expression is very low and after the addition of detection reagent, a luminescent read-out is carried out. NIH Chemical Genomics Center [NCGC] NIH Molecular Libraries Probe Production Centers Network [MLPCN] MLPCN Grant: DA031088-01A1 Assay Provider (PI): Yi Sung, University of Michigan at Ann Arbor
5ul of 1000 cells per well are dispensed in all wells except column 4, into white solid-bottom TC-treated Kalypsys plates. The cells are kept in Opti-MEM and supplemented with 10% FBS and dispensed using a Multidrop (Thermo). Then using the Kalypsys pin-tool, 23nl of compounds are pinned. The compounds are starting concentration at 10mM, with 1:5 dilution, 4 points, and the control compound nocodazole is pinned in column 1 at 25mM, 1:3 dilution, in duplicate, 25mM nocodazole is pinned in column 2. Please note, all concentrations are working concentrations. 5ul of 1pM purified luciferase enzyme is dispensed using the Kalypsys dispenser in column 4. Plates are incubated for 24 hrs at 37 deg C, 5% CO2, and 95% humidity. Then 4ul of the detection reagent Amplite (ABD Bioquest) is added using the Kalypsys dispenser. Plates are incubated for 10 min at ambient room temperature and are then read on the ViewLux (Perkin Elmer) using a clear filter for a luminescent read-out.
(In general: Quantitative high-throughput screening tests each substance at several concentrations.)
In the case of `CCC(CO)(C(=O)OC1CN2CCC1CC2)c1ccccc1` (configuration not stated), the activity change, positive = activation was inactive: 3.68%.

Take `COc1cc(OC)cc(C(=O)NCC2(N3CCOCC3)CCCCC2)c1`: the activity change, positive = activation was inactive: 0.208%.

For the compound `COc1cccc(C(=O)N(c2cc(C)cc(C)c2)C2CCN(C(=O)OC(C)(C)C)CC2)c1`, the activity change, positive = activation was inactive: -1.6%.

In the case of `CCCOc1ccc(C)cc1CN(CCCl)CCCl`, the activity change, positive = activation was inactive: -2.22%.

`CCOc1ncccc1C(=O)NCC1(N2CCOCC2)CCCCC1`: the activity change, positive = activation was inactive: -6.81%.

Consider `CN1CCC(Nc2ccc(F)c(Cl)c2)CC1`, for which the activity change, positive = activation was inactive: -11.2%.

With `CCCOc1ccc(C(=O)NCC2(N(C)C)CCCCC2)cc1`, the activity change, positive = activation is inactive: -3.93%.

For the compound `CC(C)(C)OC(=O)N1CCC(Nc2ccccc2)CC1`, the activity change, positive = activation was inactive: 0.342%.

Turning to `O=C(O)C1(Nc2ccccc2)CCN(Cc2ccccc2)CC1`, the activity change, positive = activation was inactive: -7.67%.

In the case of `CCN1CCC(Nc2cccc(F)c2)CC1`, the activity change, positive = activation was inactive: -0.663%.

Regarding `O=C(NCC1(N2CCCCC2)CCCCC1)c1ccco1`, the activity change, positive = activation is inactive: 5.64%.

Turning to `CN(C)c1ccc(C(=O)NCC2(N3CCCCC3)CCCCC2)cc1`, the activity change, positive = activation was inactive: 0.335%.

Regarding `COc1cc(OC)cc(C(=O)NCC2(N3CCCCC3)CCCCC2)c1`, the activity change, positive = activation is inactive: 1.34%.

For the compound `Cc1ccc(C(=O)NCC2(N3CCCCC3)CCCCC2)o1`, the activity change, positive = activation was inactive: -1.33%.

Take `Fc1ccccc1NC1CCN(Cc2ccccc2)CC1`: the activity change, positive = activation is inactive: 0.93%.

`c1ccc(CN2CCC(Nc3ccccc3)CC2)cc1`: the activity change, positive = activation is inactive: -1.69%.

In the case of `CN(C)C1(CNC(=O)c2cccc(C#N)c2)CCCCC1`, the activity change, positive = activation is inactive: 0.27%.

With `CC(C)(C)OC(=O)N1CCC(N(C(=O)c2ccccc2)c2ccc(Cl)cc2)CC1`, the activity change, positive = activation was inactive: -8.71%.

For `N#Cc1ccc(C(=O)NCC2(N3CCCCC3)CCCCC2)cc1`, the activity change, positive = activation was inactive: 4.85%.

Turning to `CCOC(=O)C(CC)C1=NC(C)(C)Cc2ccccc21.O=[N+]([O-])c1cc([N+](=O)[O-])c(O)c([N+](=O)[O-])c1` (configuration not stated), the activity change, positive = activation was inactive: -0.698%.

Consider `N/C(=N\O)c1c(N)no[n+]1[O-]`, for which the activity change, positive = activation is inactive: 0.067%.

Turning to `CCOC(=O)N1CCC(Nc2ccc(C)cc2)CC1`, the activity change, positive = activation is inactive: 18%.

With `CCc1cc(C(=O)NCC2(N3CCCCC3)CCCCC2)sc1C`, the activity change, positive = activation is inactive: 2.18%.

Take `O=C(OC1CN2CCC1CC2)C1c2ccccc2C=Cc2ccccc21` (configuration not stated): the activity change, positive = activation is inactive: -9.85%.

With `O=C(O)c1cccc(Nc2c([N+](=O)[O-])cc([N+](=O)[O-])cc2[N+](=O)[O-])c1`, the activity change, positive = activation is inactive: 4.25%.

Take `O=C(NCC1(N2CCOCC2)CCCCC1)c1cc(Br)ccc1Cl`: the activity change, positive = activation is inactive: -5.81%.

For `COc1cc(C(=O)NCC2(N3CCOCC3)CCCCC2)cc(OC)c1C`, the activity change, positive = activation was inactive: -0.185%.
